Protein sequences, listed by entry. Tags and fused reporters are not part of them.
Pyruvate kinase PKM (Homo sapiens), P14618, UniProt P14618, whole entry, looked up: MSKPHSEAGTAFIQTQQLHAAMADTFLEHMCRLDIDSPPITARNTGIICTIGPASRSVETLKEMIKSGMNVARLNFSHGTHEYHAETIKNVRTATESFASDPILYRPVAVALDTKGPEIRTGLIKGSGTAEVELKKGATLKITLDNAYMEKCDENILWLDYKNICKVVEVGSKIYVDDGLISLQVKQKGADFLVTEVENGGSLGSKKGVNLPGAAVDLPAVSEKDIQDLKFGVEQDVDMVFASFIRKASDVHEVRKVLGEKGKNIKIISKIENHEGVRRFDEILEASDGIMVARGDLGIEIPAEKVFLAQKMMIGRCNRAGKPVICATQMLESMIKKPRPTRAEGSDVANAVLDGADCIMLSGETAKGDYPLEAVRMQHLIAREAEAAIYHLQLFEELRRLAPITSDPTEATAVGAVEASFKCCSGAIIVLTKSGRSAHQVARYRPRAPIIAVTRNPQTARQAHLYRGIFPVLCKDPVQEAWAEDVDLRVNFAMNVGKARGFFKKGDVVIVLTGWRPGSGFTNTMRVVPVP
Importin subunit beta-1 (Homo sapiens), Q14974, UniProt Q14974, whole entry, looked up: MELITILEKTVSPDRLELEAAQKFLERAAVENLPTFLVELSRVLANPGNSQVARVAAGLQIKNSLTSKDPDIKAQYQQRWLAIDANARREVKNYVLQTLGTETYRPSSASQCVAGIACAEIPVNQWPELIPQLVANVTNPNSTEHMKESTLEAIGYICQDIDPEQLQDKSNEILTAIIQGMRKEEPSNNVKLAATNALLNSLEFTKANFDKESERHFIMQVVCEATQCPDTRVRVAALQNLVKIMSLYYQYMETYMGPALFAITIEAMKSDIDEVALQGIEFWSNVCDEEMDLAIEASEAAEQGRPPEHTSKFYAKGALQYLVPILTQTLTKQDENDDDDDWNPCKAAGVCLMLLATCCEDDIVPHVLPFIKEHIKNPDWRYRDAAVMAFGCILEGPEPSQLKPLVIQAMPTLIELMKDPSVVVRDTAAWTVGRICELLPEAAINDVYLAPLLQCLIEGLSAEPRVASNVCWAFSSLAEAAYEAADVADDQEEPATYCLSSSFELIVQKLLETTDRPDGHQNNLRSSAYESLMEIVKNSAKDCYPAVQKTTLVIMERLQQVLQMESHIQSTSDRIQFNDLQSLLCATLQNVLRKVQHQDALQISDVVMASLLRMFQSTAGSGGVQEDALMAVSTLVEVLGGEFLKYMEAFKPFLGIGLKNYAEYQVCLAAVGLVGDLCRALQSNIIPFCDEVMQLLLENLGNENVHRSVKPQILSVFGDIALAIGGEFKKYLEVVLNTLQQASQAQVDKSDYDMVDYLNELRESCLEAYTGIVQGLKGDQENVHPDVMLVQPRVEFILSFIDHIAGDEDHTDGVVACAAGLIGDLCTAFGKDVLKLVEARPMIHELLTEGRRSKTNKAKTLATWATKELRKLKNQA

# Rango dissoc inh: qHTS Assay for Inhibitors of RanGTP induced Rango (Ran-regulated importin-beta cargo) - Importin beta complex dissociation; Biochemical FRET Rango-importin beta, RanGTP-induced dissociation; Potency, µM (series often up to 46.1 µM), for inactives: at the highest dose activity change, negative = inhibition; 0.071% of 340,000 active; calls by dose curve; further: potency means the concentration at half of the fitted maximal effect; % of control where 0% means no effect; nearly all actives have a fitted effect of over 45% in size
#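 Rango FRET biosensor (snurportin-1 IBB flanked by N-terminal EYFP and C-terminal CFP10) at 0.1 uM, with 0.25 uM importin beta in PBS, 1mM DTT, 0.02% Tween-20, 0.1% BSA. 0.6 uM Ran, 2mM GTP and 0.2 uM RCC1 were then added for 45 min at room temperature. Inhibition read as loss of FRET rise.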
# PKM2 act: qHTS Assay for Activators of Human Muscle isoform 2 Pyruvate Kinase. 0.34% of 260,000 active. Pyruvate kinase PKM (Homo sapiens), P14618. Potency, µM (highest dose often 57.5 µM), inactives show at the highest dose activation, hits mostly activators. purified PKM2, Kinase-Glo ATP luminescence, activation; response scale: 0% is enzyme alone, no compound. AID 1631, 2009; further: potency means the concentration at half of the fitted maximal effect; on the % scale 0 is the no-effect control and ±100 the full control effect; nearly all actives have a fitted effect of over 55% in size
#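 hPK-M2, >95% pure; 0.1 mM ADP / 0.5 mM PEP final; imidazole pH7.2 buffer w/ 7 mM MgCl2, 50 mM KCl; 1 h RT; Kinase-Glo lum. Intermediate enzyme activity for dual inhibitor/activator qHTS.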
# Rango-impB inh: qHTS Assay for Inhibitors of Rango (Ran-regulated importin-beta cargo) - Importin beta complex formation; Importin subunit beta-1 (Homo sapiens), Q14974; AID 540263, 2011; Rango CFP/YFP FRET sensor + importin beta, 45 min; Potency, µM (top dose mostly 92.2 µM), for inactives: at the top dose inhibition of complex formation; 0.031% of 340,000 active; calls by dose curve;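 further: potency means the concentration at half of the fitted maximal effect; 0% = DMSO wells and 100% = buffer wells lacking importin beta; nearly all actives have a fitted effect of over 15% in size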
#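 FRET biosensor (snurportin 1 IBB flanked by EYFP and cerulean), 50 nM, with compound 5 min, then 0.125 microM importin beta in PBS, 1 mM DTT, 0.02% Tween-20, 0.1% BSA. CFP/YFP ratio read after 45 min at room temperature; pre-read flags interference.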
# IL2 activator: qHTS of IL-2 Activators; IL-2 activation reporter assay, cell-based qHTS; stimulated with anti-CD3/CD4/CD28 beads; in transgenic mouse T cells; activation, % (series mostly up to about 46 µM); 0.065% of 360,000 active; in the data active means activation above about 50%; inconclusive means mostly about 30% to 49%; further: 0% is about no effect
#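 Unstimulated transgenic mouse T cells preincubated 60 min with compound, then stimulated with anti-CD3/anti-CD4-coated beads plus anti-CD28 for 18 h at 37 degrees C. IL-2 response read as EGFP and DsRed fluorescence by plate cytometry.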
# A-T KAP1 phos: qHTS Assay for Identifying a Potential Treatment of Ataxia-Telangiectasia. 0.19% of 320,000 active. AID 485349, 2010. F2112 A-T fibroblasts, KAP-1 phosphorylation AlphaLISA; neocarzinostatin DNA damage 30 min before lysis. Potency, µM (doses to about 57.5 µM), inactives show top-dose activation, hits mostly activators; further: potency means the concentration at half of the fitted maximal effect; % of control where 0% means no effect; nearly all actives have a fitted effect of over 45% in size
#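 hTERT-immortalized A-T patient fibroblasts (F2112), 500 cells/well in OPTI-MEM, 1% FBS, got compounds for 60 min, then NCS for 30 min at 37C. Lysates were then assayed for phospho-KAP-1 by AlphaLISA (anti-pKAP1 donor, anti-KAP1 acceptor beads), 6 hr at 25C.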
# Starred values were filed as active, the others as inactive; u = inconclusive; x = not tested or not shown; [ ] = dose if it differs, or a comment. Sampled rows, rich in hits. Any-hit rate of the full collection: about 0.59%. Unless noted, the call rests on the fitted dose curve; in most records, active means well fitted activation curve with a large enough effect; inconclusive means small, poorly fitted or top-dose-only effect; inactive means no such curve, though single readings can be large or run the other way.
SMILES,Rango dissoc inh,PKM2 act,Rango-impB inh,IL2 activator,A-T KAP1 phos
CCOc1ccc(NC(=O)COC(=O)C2COc3ccccc3O2)cc1 (stereo unspecified),x,x,x,0.5,x
Fc1ccc2cc(-c3ccsc3)ncc2c1,1.8%,x,-4.3%,2.5,7.6%
CN1OC[C@@H]2CN(C(=S)NCCc3ccccc3)[C@H](c3ccc(N4CCCCC4)cc3)C[C@@H]21,x,x,x,-0.6,x
CCOc1ccc2c(c1)C(C)=CC(C)(C)N2C(=O)Nc1ccccc1F,-25.1%,4.3%,-6.1%,2.8,3.8%
CCNC(=O)N1c2ccc(OCC)cc2C(C)=CC1(C)C,2.06µM*,6.9%,u,-3.2,25.2%
Cc1ccc(S(=O)(=O)/C(C#N)=C/c2c(N3CCC(C(N)=O)CC3)nc3ccccn3c2=O)cc1,13µM*,-2.4%,u,-3.0,3.6%
Cc1ccc(NC(=O)/C=C/c2ccc([N+](=O)[O-])s2)c(C)c1,u,6.1%,u,0.5,-8.7%
Cc1ccc(NC(=O)/C=C/c2ccc([N+](=O)[O-])s2)cc1,0.731µM*[inhibitor],-4.9%,-13.4%,3.6,-6.9%
Cc1cccc(NC(=O)/C=C/c2ccc([N+](=O)[O-])s2)c1,2.06µM*[inhibitor],-1.9%,u,-3.0,-0.4%
Cc1nn(CCO)c2ncc(C(=O)c3cc(F)ccc3O)cc12,-10.1%,-2.0%,-1.4%,6.0,-2.2%

# Copied from the list:
# Cc1ccc(S(=O)(=O)/C(C#N)=C/c2c(N3CCC(C(N)=O)CC3)nc3ccccn3c2=O)cc1 in PKM2 act: -2.4%
# CCOc1ccc(NC(=O)COC(=O)C2COc3ccccc3O2)cc1 (stereo unspecified) in IL2 activator: 0.5
# Fc1ccc2cc(-c3ccsc3)ncc2c1 in A-T KAP1 phos: 7.6%

# The listing continues.
SMILES,Rango dissoc inh,PKM2 act,Rango-impB inh,IL2 activator,A-T KAP1 phos
COCCNC(=O)C1(C)CCCN(C(=O)c2cc(F)ccc2C)C1 (stereo unspecified),x,x,x,-0.2,x
O=C(Nc1ccc(S(=O)(=O)Nc2ncccn2)cc1)C1=COCCO1,-13.8%,x,u,-0.3,3.7%
COC(=O)c1ccc(CSc2cc(C)c3ccccc3n2)o1,-10.0%,x,-2.3%,0.3,31.6µM*
CCCn1c(SCc2ccc(C(=O)OC)o2)nc2ccccc2c1=O,6.1%,x,2.4%,-4.0,12.4%
CCN1CCN(S(=O)(=O)c2c[nH]c(C(=O)OC)c2)CC1,0.2%,9.3%,-0.8%,-1.0,-7.7%
COc1ccc(CCNC(=O)COc2ccc(S(=O)(=O)N3CCOCC3)cc2C)cc1,0.6%,1.4%,0.2%,-0.1,2.1%
Cc1nnc2sc(SCc3ccccc3)nn2c1=O,x,u,x,x,7.4%
Cc1nnc2sc(SCc3ccccc3Cl)nn2c1=O,-10.5%,7.08µM*,-3.4%,-1.9,3.1%
CCn1c(O)c(/C=C2\C=NN=C2c2ccccc2)sc1=S,1.0%,-2.2%,0.0%,-5.7,5.7%
CC(C)Cn1c(O)c(/C=C2\C=NN=C2c2ccccc2)sc1=S,17.2%,2.4%,-0.8%,-1.3,31.6µM*
Cc1noc(C)c1NC(=O)N1C[C@H](O)COC[C@H]2O[C@@H](CC(=O)NCC3CCCCC3)CC[C@@H]21,x,x,x,0.5,x
Cc1[nH]n(-c2ccccc2)c(=O)c1C=Nc1ccc2[nH]c(=O)[nH]c2c1,13.0%,-4.5%,3.4%,52.0*,-0.6%
O=C(Nn1cnnc1)C(c1ccccc1)c1ccccc1,-2.3%,31.6µM*,0.6%,-2.2,5.9%
O=C(Nn1cnnc1)C(Sc1ccccc1)c1ccccc1 (stereo unspecified),-16.7%,19.0%,-4.9%,-0.3,1.7%
COc1ccccc1S(=O)(=O)Nc1ccc(-c2nnc3n2CCCCC3)cc1,2.3%,20µM*,-0.1%,0.7,3.55µM*
COC(=O)CNC(=O)C1(CC(C)C)C=CCN1C(C)=O (stereo unspecified),x,0.1%,x,x,x
CCCCN(c1nc2ccccc2nc1Cl)S(=O)(=O)c1ccc(C)cc1,1.0%,x,-0.5%,7.3,10µM*
CCCN(CCC)CC(O)CN(c1ccccc1)S(=O)(=O)c1ccc(C)cc1 (stereo unspecified),-10.0%,1.9%,1.0%,-1.8,x
COc1ccccc1C(=O)Nc1nnc([C@H]2C[C@H](O)[C@@H](CO)O2)s1,x,x,x,-0.7,x
COc1ccc2c(c1)c1ncn(Cc3ccco3)c(=O)c1n2C,2.2%,1.26µM*,-3.6%,0.1,6.5%

# Rewritten with values under each structure: entries from further up.
# Order of values – Rango dissoc inh, PKM2 act, Rango-impB inh, IL2 activator, A-T KAP1 phos
COc1ccccc1S(=O)(=O)Nc1ccc(-c2nnc3n2CCCCC3)cc1
    2.3%, 20µM*, -0.1%, 0.7, 3.55µM*
Cc1nnc2sc(SCc3ccccc3Cl)nn2c1=O
    -10.5%, 7.08µM*, -3.4%, -1.9, 3.1%
CCNC(=O)N1c2ccc(OCC)cc2C(C)=CC1(C)C
    2.06µM*, 6.9%, u, -3.2, 25.2%

# (more compounds)
SMILES,Rango dissoc inh,PKM2 act,Rango-impB inh,IL2 activator,A-T KAP1 phos
COc1ccc(NC(=O)N(C)C[C@@H]2OCc3cn(nn3)CCCC(=O)N([C@H](C)CO)C[C@H]2C)cc1,x,x,x,-1.9,x
COc1cccc(OC)c1OCc1cc(C2C3CCCC=C3C(C#N)=C(N)C2(C#N)C#N)c(C)cc1C (stereo unspecified),u,4.47µM*,u,2.0,1.0%
CCCN1CC=C2C(C#N)=C(N)C(C#N)(C#N)C(c3cccc(OC)c3OC)C2C1 (stereo unspecified),u,-7.8%,u,-0.5,16.8%
CCC(=O)Nc1ccc(C(=O)NNC(=O)CCCCC(=O)NNC(=O)c2ccc(NC(=O)CC)cc2)cc1,x,x,x,-2.5,x
CCCC/C=C/C(NC(=O)c1cccs1)c1ccccc1 (stereo unspecified),x,3.6%,x,x,x
COC(=O)c1ccc(C(NC(=O)OCc2ccccc2)/C(I)=C/[C@@H](C)C(=O)NCc2ccc(C)o2)cc1 (stereo partly specified),x,14.1µM*,x,x,x
CC(=O)c1ccc(OCCCC(=O)NNC(=O)c2ccccn2)cc1,-10.0%,x,-0.9%,0.1,-0.6%
C[C@@H](NC(=O)[C@@H]1CCCN1C(=O)OC(C)(C)C)c1ccccc1,x,x,x,-0.1,x
COCCNC(=O)CSc1n[nH]c(=O)n1CCc1ccccc1,0.0%,x,u,1.1,17.8µM*
Cc1c(C)n2c(SCC(=O)Nc3cccc4ccccc34)nnc2[nH]c1=O,4.1%,x,0.1%,3.8,-5.7%
CCCCN1C(=O)/C(=C/C=C2\SCCN2C)SC1=S,-6.1%,1.0%,51.7µM*,17.4,-2.7%
CN1CCS/C1=C/C=C1\SC(=S)N(CC(=O)O)C1=O,u,-0.5%,58µM*,-0.7,-2.7%
CCc1cc(Cn2nc(-c3ccccc3)cc2C(=O)NCC2CC2)on1,-17.1%,x,-0.8%,-0.5,6.2%
CCN(CC)c1ccc(/C=N/NC(=O)c2cccc(N3CCCC3=O)c2)cc1,10.3µM*,1.6%,u,0.3,-3.2%
O=C(N/N=C/c1cccnc1)c1cccc(N2CCCC2=O)c1,10.4%,-9.7%,9.5%,-0.3,-3.2%
Cc1c(C)c2c(OCC(=O)NCc3ccccn3)cc3c(c2oc1=O)CCC(C)(C)O3,2.4%,1.6%,0.0%,-0.1,7.0%
CCOc1ccc(/C=c2\sc3nc(-c4ccco4)nn3c2=O)cc1OCC,8.3%,-4.9%,-0.1%,-2.5,-3.8%
COc1cc(/C=c2\sc3nc(=O)c(-c4ccccc4)nn3c2=O)ccc1OCCC(C)C,-2.6%,1.3%,-0.2%,100.1*,-1.2%
Cn1cccc1/C=C1\SC(=O)N(c2ccccc2)C1=O,u,-0.6%,u,249.9*,-16.6%

# Screens deposited in PubChem by National Center for Advancing Translational Sciences (NCATS).
